From US11819554B2, “Compositions and methods for modulating FMR1 expression” (University of Massachusetts, priority 2015, dated 2023)

Test system: epigenetically silenced FMR1 gene in FXS iPSCs (FXS 848-iPS3 cells)
Assay: qRT-PCR analysis monitoring expression of FMR1 in FXS iPSCs
Type: cell-based, human
Settings: titration with increasing concentrations (FIG. 8D)

With `CCN(c1cc(-c2ccc(CN3CCOCC3)cc2)cc(C(=O)NCc2c(C)cc(C)[nH]c2=O)c1C)C1CCOCC1` [EPZ6438] the “correlation between loss of EZH2 enzymatic activity and FMR1 reactivation” value was “very good correlation”.
